Amino acid sequences for entries named in this document (tags omitted). A change or cut given only in a name is not applied to a line headed by its entry.
UniProt P48048: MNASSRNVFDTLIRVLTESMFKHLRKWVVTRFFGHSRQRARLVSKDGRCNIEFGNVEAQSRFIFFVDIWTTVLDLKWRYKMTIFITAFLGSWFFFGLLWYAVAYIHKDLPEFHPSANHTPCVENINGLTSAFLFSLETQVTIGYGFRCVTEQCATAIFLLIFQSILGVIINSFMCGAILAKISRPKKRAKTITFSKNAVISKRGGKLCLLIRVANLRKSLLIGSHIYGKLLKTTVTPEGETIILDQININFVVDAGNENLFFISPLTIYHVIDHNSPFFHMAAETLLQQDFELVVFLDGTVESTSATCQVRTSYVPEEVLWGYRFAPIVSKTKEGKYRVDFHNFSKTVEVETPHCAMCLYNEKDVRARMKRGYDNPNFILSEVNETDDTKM

In patent US9850245B2 (Merck Sharp & Dohme Corp., priority 2014, dated 2017):

Tests used:
ROMK = ROMK (Homo sapiens (Human), UniProt P48048); test: Thallium Flux Assay; format: cell-based
Method: A Thallium Flux Assay was performed on the compounds of the Examples. This assay has been described previously; see, e.g., PCT Published Application WO 2013/062900.

Kir1.1 (ROMK1) = Kir1.1 (ROMK1) (Homo sapiens (Human), UniProt P48048); test: Electrophysiology Assay (whole cell voltage clamp, IonWorks Quattro); format: cell-based; settings: Chinese hamster ovary cells stably expressing Kir1.1; fractional block at voltage step to 0 mV; 6 min compound incubation
Method: Blocking of Kir1.1 (ROMK1) currents was examined by whole cell voltage clamp (Hamill et. al. Pfluegers Archives 391:85-100 (1981)) using the IonWorks Quattro automated electrophysiology platform (Molecular Devices, Sunnyvale, Calif.). Chinese hamster ovary cells stably expressing Kir1.1 channels were maintained in T-75 flasks in cell culture media in a humidified 10% CO2 incubator at 37° C. Prior to an experiment, Kir1.1 expression was induced by overnight incubation with 1 mM sodium butyrate. On the day of the experiment, cells were dissociated with 2.5 mL of Versene (Invitrogen 15040-066), a non-enzymatic cell dissociation reagent, for approximately 6 min at 37° C. and suspended in 10 mL of bath solution containing (in mM): 150 NaCl, 10 KCl, 2.7 CaCl2, 0.5 MgCl2, and 5 HEPES, at pH 7.4. After centrifugation, the cell pellet was resuspended in approximately 4.0 mL of bath solution and placed in the IonWorks instrument. The intracellular solution consisted of (in mM): 80 K gluconate, 40 KCl, 20 KF, 3.2 MgCl2, 3 EGTA, and 5 Hepes, at pH 7.4. Electrical access to the cytoplasm was achieved by perforation in 0.13 mg/mL amphotericin B for 4 min. Amphotericin B (Sigma A-4888) was prepared as a 40 mg/mL solution in DMSO.
Voltage protocols and current recordings were performed using the IonWorks HT software/hardware system. Currents were sampled at 1 kHz. There was no correction for liquid junction potentials. The test pulse, consisting of a 100 ms (millisecond) step to 0 mV (millivolts) from a holding potential of −70 mV, followed by a 100 ms voltage ramp from −70 mV to +70 mV, was applied before and after a 6 min compound incubation period. Test compounds were prepared by diluting DMSO stock solutions into the bath solution at 3× the final concentration and placed in the instrument in 96-well polypropylene plates. Current amplitudes were measured using the IonWorks software. To assess compound potency, the fractional block during the voltage step to 0 mV was calculated in Microsoft Excel (Microsoft, Redmond, Calif.), and dose-response curves were fitted with Igor Pro 4.0 (WaveMetrics, Lake Oswego, Oreg.). Although not required, a control compound is typically included to support that the assay is giving consistent results compared to previous measurements.

Row | IC50 (ROMK) | IC50 (Kir1.1 (ROMK1)) | SMILES
1 | 15.8 nM | 4.8 nM | CC1=C(N2CCOC3(CCN(CC(O)c4ccc(-n5cnnn5)cc4)CC3)C2=O)COC1=O (single isomer, unassigned) [Example 9A, 9-(2-(4-(1H-tetrazol-1-yl)phenyl)-2-hydroxyethyl)-4-(4-methyl-5-oxo-2,5-dihydrofuran-3-yl)-1-oxa-4,9-diazaspiro[5.5]undecan-5-one]
2 | 12.3 nM | – | CC1=C(N2CCOC3(CCN(CC(O)c4ccc(-n5cnnn5)cc4)CC3)C2=O)COC1=O (single isomer, unassigned) [Example 9B, 9-(2-(4-(1H-tetrazol-1-yl)phenyl)-2-hydroxyethyl)-4-(4-methyl-5-oxo-2,5-dihydrofuran-3-yl)-1-oxa-4,9-diazaspiro[5.5]undecan-5-one]
3 | 5.56 nM | 16 nM | Cc1nc(-n2cnnn2)ccc1C(O)CN1CCC2(CC1)CN(C1=C(Cl)C(=O)OC1)CCO2 (single isomer, unassigned) [Example 25A, 3-chloro-4-(9-(2-hydroxy-2-(2-methyl-6-(1H-tetrazol-1-yl)pyridin-3-yl)ethyl)-1-oxa-4,9-diazaspiro[5.5]undecan-4-yl)furan-2(5H)-one]
4 | 106 nM | – | Cc1nc(-n2cnnn2)ccc1C(O)CN1CCC2(CC1)CN(C1=C(Cl)C(=O)OC1)CCO2 (single isomer, unassigned) [Example 25B, 3-chloro-4-(9-(2-hydroxy-2-(2-methyl-6-(1H-tetrazol-1-yl)pyridin-3-yl)ethyl)-1-oxa-4,9-diazaspiro[5.5]undecan-4-yl)furan-2(5H)-one]
5 | 37.3 nM | 15 nM | CC1=C(N2CCOC3(CCN(CC(O)c4ccc(-n5cnnn5)nn4)CC3)C2=O)COC1=O (single isomer, unassigned) [Example 45A, 9-(2-(6-(1H-tetrazol-1-yl)pyridazin-3-yl)-2-hydroxyethyl)-4-(4-methyl-5-oxo-2,5-dihydrofuran-3-yl)-1-oxa-4,9-diazaspiro[5.5]undecan-5-one]
6 | 44.6 nM | 20 nM | CC1=C(N2CCOC3(CCN(CC(O)c4ccc(-n5cnnn5)nn4)CC3)C2=O)COC1=O (single isomer, unassigned) [Example 45B, 9-(2-(6-(1H-tetrazol-1-yl)pyridazin-3-yl)-2-hydroxyethyl)-4-(4-methyl-5-oxo-2,5-dihydrofuran-3-yl)-1-oxa-4,9-diazaspiro[5.5]undecan-5-one]
